Target: Liver carboxylesterase (Sus scrofa, UniProt Q29550)
Assay: Inhibition of porcine liver carboxylesterase using 4-nitrophenol acetate as substrate by spectrophotometric analysis

Protein sequences, listed by entry. Tags and fused reporters are not part of them. Residues count along the entry.
UniProt Q29550, 19-566 limits assumed: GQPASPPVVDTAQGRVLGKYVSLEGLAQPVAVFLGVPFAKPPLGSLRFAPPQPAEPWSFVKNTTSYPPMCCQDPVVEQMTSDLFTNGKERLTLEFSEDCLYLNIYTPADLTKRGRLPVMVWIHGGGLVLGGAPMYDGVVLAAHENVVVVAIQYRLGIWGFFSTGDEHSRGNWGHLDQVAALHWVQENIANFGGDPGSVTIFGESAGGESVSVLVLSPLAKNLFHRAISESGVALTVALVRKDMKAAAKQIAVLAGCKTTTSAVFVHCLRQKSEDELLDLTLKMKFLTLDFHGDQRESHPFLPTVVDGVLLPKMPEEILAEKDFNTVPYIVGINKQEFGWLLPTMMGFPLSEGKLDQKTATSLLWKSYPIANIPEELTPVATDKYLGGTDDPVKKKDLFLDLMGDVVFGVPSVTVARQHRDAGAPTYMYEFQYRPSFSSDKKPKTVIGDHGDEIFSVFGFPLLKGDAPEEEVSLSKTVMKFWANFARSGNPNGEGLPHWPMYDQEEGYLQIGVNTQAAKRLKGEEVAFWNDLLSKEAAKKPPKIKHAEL

`ICC1CN=C(Nc2ccccn2)S1` (stereo unspecified) gave an IC50 of 610 µM.
